Key:
[1] = pH 7.2
[2] = system: p53CTD (p53(293–393)), tetrameric recombinant; assay: Peptide array screening for binding p53CTD; conditions: Celluspots peptide array; 20 µM p53CTD in 1% milk in TBS-T, overnight 4°C; FL-393 anti-p53 antibody
p53CTD L344A = assay: Circular dichroism thermal denaturation; conditions: 20 µM protein, 100 µM peptide, 25 mM phosphate pH 7.2, 25 to 65°C, CD at 222 nm; average of 2 repeats (WS100A4: error of fit); no peptide 49.1±0.4

Row | Compound | Solubility (in words) [1] | Binds to: p53(293–393) [2] | Tm of p53CTD L344A in the presence of peptide (p53CTD L344A) [°C]
1 | CC(C)[C@H](NC(=O)[C@@H](N)Cc1c[nH]c2ccccc12)C(=O)N[C@H](C(=O)N[C@H](C(=O)N[C@@H](C)C(=O)N[C@@H](CS)C(=O)N[C@@H](Cc1c[nH]cn1)C(=O)N[C@@H](CCC(=O)O)C(=O)N[C@@H](Cc1ccccc1)C(=O)N[C@@H](Cc1ccccc1)C(=O)N[C@@H](CCC(=O)O)C(=O)N[C@@H](Cc1c[nH]cn1)C(=O)N[C@@H](CCC(=O)O)C(N)=O)[C@@H](C)O)[C@@H](C)O [WS100B(81–92)] | less soluble | – | –
2 | WS100A4(21–35): non-binding peptide used as a control (WGKEGDKFKLNKSELK; fluorescein (5(6)-carboxyfluorescein) on the N-terminus) | – | did not interact with p53CTD in the array | 48.2±0.1

Reference: article PMC3365014, “Specific Recognition of p53 Tetramers by Peptides Derived from p53 Interacting Proteins” (PLoS ONE, 2012)
